From patent US12258354B2, “AhR modulators” (IDEAYA BIOSCIENCES, INC., priority 2018, dated 2025) come the findings set out here.

Chains of the proteins cited; added tags and fusions are not shown. Residues count along the entry.
UniProt P35869, 11-848 limits assumed: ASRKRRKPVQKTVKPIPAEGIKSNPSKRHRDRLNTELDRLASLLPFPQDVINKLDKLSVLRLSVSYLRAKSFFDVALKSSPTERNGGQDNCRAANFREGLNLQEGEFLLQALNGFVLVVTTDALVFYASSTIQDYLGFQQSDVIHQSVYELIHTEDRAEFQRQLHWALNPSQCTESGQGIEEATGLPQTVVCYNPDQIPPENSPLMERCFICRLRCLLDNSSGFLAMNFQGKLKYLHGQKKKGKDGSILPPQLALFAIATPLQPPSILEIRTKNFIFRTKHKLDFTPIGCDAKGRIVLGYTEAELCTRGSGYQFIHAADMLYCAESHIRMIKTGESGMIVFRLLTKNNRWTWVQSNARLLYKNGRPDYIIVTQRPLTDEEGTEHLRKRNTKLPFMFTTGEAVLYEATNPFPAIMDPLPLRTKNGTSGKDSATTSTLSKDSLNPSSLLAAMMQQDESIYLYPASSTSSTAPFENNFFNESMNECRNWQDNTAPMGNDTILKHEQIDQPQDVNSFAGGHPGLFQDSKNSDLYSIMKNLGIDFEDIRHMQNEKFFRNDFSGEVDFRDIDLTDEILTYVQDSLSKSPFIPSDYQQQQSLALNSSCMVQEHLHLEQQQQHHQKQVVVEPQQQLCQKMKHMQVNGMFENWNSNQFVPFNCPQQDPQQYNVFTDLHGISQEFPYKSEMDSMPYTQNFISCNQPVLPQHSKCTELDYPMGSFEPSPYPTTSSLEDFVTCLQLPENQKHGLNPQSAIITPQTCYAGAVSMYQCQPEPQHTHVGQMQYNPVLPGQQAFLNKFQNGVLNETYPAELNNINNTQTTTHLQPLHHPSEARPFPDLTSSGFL

Usually IC50 stands for the concentration at which inhibition is half-maximal.

This assay deals with hAhR (Homo sapiens, UniProt P35869). Nature of the assay: DRE-luciferase transcriptional reporter assay in HEPG2 DRE-Luc cells, TCDD-induced (antagonist mode). The following applies: read-out: IC50 hAhR (antagonist mode), relative IC50, 3 nM TCDD, 24-hour incubation, firefly luciferase readout. The method, then: HEPG2 and HEPA1C1C7 cells were maintained in MEM and αMEM without nucleosides supplemented with 10% heat inactivated FBS respectively. Stably integrated DRE-luciferase cell lines were generated by transducing the both cell lines with Cignal XRE luciferase reporter (Qiagen) lentiviral particles according to the manufacturer protocol. For both cell lines stably integrated reporter cell lines were selected for the presence of 2 μg/mL puromycin. Following selection of stably integrated cell line pools, clonal cell lines were isolated by limiting dilution in 96-well plates. Transcriptional assays were performed by seeding 100 μL of cells at a density of 250,000 or 100,000 cells/mL, for HEPG2 and HEPA1C1C7 DRE-Luc cells respectively, into 96-well cell culture plates in OptiMEM supplemented with 0.5% heat inactivated FBS and allowed to attach overnight. […] Firefly luciferase activity was measured immediately following the addition of 50 μL Luciferase Assay Reagent (Promega). The percent maximal activity for each point was determined using the following equation: (RLUsample−RLUvehicle−TCDD)/(RLUvehicle+TCDD RLUvehicle−TCDD)*100. The relative IC50, defined as the compound concentration required to reduce the TCDD induced response between the top and bottom plateau of each individual dose response curve by half, for each compound was determined using Prism 7 (GraphPad Software).
Background: Reporter assays use an easily measured gene product as a stand-in for the process of interest.

As for `Cc1cc(-c2ncc3cc(C(F)(F)F)ccc3n2)ccc1N1CCOc2cnn(CCN(C)C)c2C1=O`, the IC50 lay within 1 to 10 µM.
